According to patent publication US6632626B1, “Methods of assaying farnesyl transferase” (Board of Regents, The University of Texas System, priority 1990, dated 2003):

Experiments:
Assay type in all cases: biochemical
[1] = molecular target: T1, rat brain farnesyl:protein transferase (Rattus norvegicus, UniProt Q02293+Q04631); experiment: Farnesyl:protein transferase inhibition: competition with p21H-ras for [3H]farnesyl from [3H]FPP, partially purified enzyme, TCA filter assay
T1 construct: Brains from 50 male Sprague-Dawley rats (100-150 g) were homogenized; from tissue
Procedure: Farnesyl:protein transferase activity was determined by measuring the amount of ^3H-farnesol transferred from ^3H]farnesyl pyrophosphate ([^3H]FPP) to p21^H-ras protein. The standard reaction mixture contained the following concentrations of components in a final volume of 25 μl: 50 mM Tris-chloride (pH 7.5), 50 μM ZnCl2, 20 mM KCl, 1 mM DTT, and 40 μM p21^H-ras. The mixture also contained 10 pmoles of [^3H]FPP (−30,000 dpm/pmol) and 1.8-3.5 μg of partially purified farnesyl:protein transferase (see below). After incubation for 1 h at 37° C. in 12×75-mm borosilicate tubes, the reaction was stopped by addition of 0.5 ml of 4% SDS and then 0.5 ml of 30% trichloroacetic acid (TCA).
The tubes were vortexed and left on ice for 45-60 min, after which 2 ml of a 6% TCA/2% SDS solution were added. […] The tubes were rinsed twice with 2 ml of the same solution, and each filter was washed five times with 2 ml of 6% TCA, dried, and counted in a scintillation counter. One unit of activity is defined as the amount of enzyme that transfers 1 pmol of [^3H]farnesol from [^3H]FPP into acid-precipitable p21^H-ras per hour under the standard conditions.
In the enzyme characterization experiments of FIGS. 1-4, 8, and 9, a partially purified fraction of farnesyl:protein transferase was used. […]

[2] = molecular target: T2, purified farnesyl:protein transferase (Rattus norvegicus, UniProt Q02293+Q04631); experiment: Inhibition of [3H]farnesyl transfer to biotinylated KTSCVIM by purified enzyme, streptavidin-agarose capture (FIG. 12B); conditions: affinity-purified enzyme, 3.4 μM biotinylated KTSCVIM
T2 construct: Brains from 50 male Sprague-Dawley rats (100-150 g) were homogenized; from tissue

[3] = molecular target: T2, purified farnesyl:protein transferase; experiment: Farnesylation of tetrapeptides by purified farnesyl:protein transferase, thin layer chromatography (substrate or pure inhibitor); conditions: 3.6 μM tetrapeptide, purified enzyme (FIG. 15)
Procedure: FIG. 15. […] The standard assay mixture (25 μl) contained 17 pmol [^3H]FPP (44,000 dpm/pmol), 5 ng of purified farnesyl:protein transferase, 0.2% (w/v) octyl-β-D-glucoside, and 3.6 μM of the indicated tetrapeptide. After incubation for 15 min at 37° C., the entire reaction mixture was subjected to thin layer chromatography for 4 h on Polygram SIL G sheet (Brinkmann Instruments) in a solvent system containing N-propanol/concentrated NH4OH/water (6:3:1). The TLC sheet was then dried, sprayed with ENHANCE Spray (Dupont-New England Nuclear) and exposed to Kodak X-OMAT AR Film XAR-5 for 25 h at −70° C.

[4] = molecular target: T2, purified farnesyl:protein transferase; experiment: Inhibition of farnesylation of p21H-ras by affinity-purified farnesyl:protein transferase (FIG. 12A); conditions: affinity-purified enzyme, 40 μM p21H-ras

Row | inhibitory activity against farnesylation of p21H-ras (in words) [1] | potency relative to CVIM, biotinylated heptapeptide as acceptor [2] | pure inhibitor or substrate for farnesylation [3] | potency relative to CVIM, p21H-ras as acceptor [4] | SMILES
1 | did not compete efficiently |  |  |  | CC[C@H](C)[C@H](NC(=O)[C@H](C)NC(=O)[C@@H](N)CS)C(=O)N[C@@H](CC(C)C)C(=O)O [CAIL]
2 | best inhibitor identified to date | more potent than CVIM | not and pure inhibitors | more potent than CVIM | CSCC[C@H](NC(=O)[C@H](Cc1ccccc1)NC(=O)[C@@H](NC(=O)[C@@H](N)CS)C(C)C)C(=O)O [CVFM]
